# Values of other authors as cited in US5874481A, “Fluorochemical solutions for the delivery of lipophilic pharmaceutical agents” (priority 1995, dated 1999).
# Settings: octanol/water; cited from earlier work
smiles,measurement,value
"CC(=O)[C@H]1CC[C@H]2[C@@H]3CCC4=CC(=O)CC[C@]4(C)[C@H]3CC[C@]12C [^14 C-progesterone, progesterone]",Log Po/w,3.9
